# Test results as given in US20050143427A1, “[B]-fused bicyclic proline derivatives and their use for treating arthritic conditions” (priority 2003, published 2005).
# Chains of the proteins cited; added tags and fusions are not shown. Residues count along the entry.
# UniProt O77773, entry or part of it limits assumed: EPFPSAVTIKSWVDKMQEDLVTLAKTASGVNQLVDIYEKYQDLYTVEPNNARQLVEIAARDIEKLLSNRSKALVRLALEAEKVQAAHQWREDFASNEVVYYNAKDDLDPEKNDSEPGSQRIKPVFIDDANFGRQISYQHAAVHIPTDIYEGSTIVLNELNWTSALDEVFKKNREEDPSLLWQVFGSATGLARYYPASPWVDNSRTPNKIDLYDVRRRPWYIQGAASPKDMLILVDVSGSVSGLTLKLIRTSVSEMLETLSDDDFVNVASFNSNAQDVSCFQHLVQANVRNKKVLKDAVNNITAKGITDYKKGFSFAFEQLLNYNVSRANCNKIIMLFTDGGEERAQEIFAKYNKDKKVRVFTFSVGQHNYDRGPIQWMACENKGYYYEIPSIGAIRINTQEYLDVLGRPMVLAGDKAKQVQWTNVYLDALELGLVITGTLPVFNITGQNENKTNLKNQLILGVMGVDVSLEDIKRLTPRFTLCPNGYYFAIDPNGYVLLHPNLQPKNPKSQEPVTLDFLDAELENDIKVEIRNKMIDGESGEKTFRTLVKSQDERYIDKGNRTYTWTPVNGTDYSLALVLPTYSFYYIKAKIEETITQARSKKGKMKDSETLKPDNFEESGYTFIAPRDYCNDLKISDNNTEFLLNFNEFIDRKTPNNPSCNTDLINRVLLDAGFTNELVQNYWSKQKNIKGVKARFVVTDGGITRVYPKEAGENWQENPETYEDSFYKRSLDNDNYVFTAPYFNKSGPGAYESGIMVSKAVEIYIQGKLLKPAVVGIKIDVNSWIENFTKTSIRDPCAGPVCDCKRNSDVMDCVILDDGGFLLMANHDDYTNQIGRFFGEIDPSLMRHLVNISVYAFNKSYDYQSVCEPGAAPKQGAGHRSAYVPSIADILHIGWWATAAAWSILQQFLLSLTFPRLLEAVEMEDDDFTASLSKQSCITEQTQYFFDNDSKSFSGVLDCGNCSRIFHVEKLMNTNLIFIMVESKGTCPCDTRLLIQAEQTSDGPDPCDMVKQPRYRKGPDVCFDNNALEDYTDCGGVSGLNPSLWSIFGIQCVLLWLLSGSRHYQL
# UniProt P54289, 25-1103 limits assumed: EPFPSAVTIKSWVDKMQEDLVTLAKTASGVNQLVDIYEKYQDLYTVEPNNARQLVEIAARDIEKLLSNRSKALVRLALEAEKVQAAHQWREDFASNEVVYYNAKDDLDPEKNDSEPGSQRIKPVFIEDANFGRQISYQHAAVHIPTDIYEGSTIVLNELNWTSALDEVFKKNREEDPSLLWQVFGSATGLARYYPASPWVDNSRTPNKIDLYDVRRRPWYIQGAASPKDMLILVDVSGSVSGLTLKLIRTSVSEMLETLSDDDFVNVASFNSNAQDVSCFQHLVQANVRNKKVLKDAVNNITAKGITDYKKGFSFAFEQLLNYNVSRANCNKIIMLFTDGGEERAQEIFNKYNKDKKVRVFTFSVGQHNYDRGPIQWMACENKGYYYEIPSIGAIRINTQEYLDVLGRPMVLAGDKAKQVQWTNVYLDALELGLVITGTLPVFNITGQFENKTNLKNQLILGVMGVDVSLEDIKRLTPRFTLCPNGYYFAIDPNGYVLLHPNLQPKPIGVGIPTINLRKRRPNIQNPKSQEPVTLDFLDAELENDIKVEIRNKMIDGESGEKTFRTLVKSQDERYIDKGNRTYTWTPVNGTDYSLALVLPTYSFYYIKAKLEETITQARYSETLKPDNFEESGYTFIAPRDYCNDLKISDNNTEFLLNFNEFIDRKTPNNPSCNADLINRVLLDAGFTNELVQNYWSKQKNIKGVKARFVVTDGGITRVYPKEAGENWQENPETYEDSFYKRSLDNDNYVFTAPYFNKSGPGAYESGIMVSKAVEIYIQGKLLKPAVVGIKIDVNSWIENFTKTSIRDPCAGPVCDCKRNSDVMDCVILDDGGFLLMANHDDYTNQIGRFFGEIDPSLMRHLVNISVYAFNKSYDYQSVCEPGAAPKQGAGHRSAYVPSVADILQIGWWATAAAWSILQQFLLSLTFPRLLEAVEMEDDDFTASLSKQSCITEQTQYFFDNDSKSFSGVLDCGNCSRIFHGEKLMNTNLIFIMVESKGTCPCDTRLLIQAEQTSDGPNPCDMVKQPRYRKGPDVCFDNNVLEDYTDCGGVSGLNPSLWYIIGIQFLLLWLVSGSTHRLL
# UniProt Q9NY47, 19-1150 limits assumed: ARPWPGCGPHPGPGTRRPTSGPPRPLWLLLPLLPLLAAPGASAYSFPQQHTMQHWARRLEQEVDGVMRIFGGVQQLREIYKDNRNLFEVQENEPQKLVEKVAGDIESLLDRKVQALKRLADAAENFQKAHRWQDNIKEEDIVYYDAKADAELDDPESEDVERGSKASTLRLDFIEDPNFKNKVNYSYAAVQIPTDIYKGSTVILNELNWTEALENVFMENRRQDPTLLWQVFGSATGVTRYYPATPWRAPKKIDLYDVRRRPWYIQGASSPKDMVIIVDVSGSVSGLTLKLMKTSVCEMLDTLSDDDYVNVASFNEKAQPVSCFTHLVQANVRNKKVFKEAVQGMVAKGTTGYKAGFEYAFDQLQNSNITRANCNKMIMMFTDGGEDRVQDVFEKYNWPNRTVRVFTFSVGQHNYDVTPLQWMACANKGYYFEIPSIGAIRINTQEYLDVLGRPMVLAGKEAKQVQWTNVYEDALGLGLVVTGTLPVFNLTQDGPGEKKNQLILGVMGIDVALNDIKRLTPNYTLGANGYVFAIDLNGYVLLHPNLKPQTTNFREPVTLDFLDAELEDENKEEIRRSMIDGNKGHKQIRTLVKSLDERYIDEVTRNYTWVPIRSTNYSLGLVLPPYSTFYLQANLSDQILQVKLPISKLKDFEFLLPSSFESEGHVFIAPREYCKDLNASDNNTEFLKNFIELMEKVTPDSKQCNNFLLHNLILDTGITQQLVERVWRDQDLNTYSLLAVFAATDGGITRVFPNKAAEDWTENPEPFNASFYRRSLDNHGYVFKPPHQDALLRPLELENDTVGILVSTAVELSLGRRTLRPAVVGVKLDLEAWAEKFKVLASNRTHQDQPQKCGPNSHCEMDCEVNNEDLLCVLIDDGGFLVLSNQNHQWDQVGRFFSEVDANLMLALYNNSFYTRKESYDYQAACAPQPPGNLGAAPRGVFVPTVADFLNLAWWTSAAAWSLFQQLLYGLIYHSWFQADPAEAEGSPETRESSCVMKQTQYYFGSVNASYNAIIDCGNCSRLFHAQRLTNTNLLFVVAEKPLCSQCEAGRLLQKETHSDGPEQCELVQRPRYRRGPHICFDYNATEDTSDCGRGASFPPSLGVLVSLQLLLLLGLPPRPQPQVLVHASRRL
# UniProt A0A287BIN3, 1-1109: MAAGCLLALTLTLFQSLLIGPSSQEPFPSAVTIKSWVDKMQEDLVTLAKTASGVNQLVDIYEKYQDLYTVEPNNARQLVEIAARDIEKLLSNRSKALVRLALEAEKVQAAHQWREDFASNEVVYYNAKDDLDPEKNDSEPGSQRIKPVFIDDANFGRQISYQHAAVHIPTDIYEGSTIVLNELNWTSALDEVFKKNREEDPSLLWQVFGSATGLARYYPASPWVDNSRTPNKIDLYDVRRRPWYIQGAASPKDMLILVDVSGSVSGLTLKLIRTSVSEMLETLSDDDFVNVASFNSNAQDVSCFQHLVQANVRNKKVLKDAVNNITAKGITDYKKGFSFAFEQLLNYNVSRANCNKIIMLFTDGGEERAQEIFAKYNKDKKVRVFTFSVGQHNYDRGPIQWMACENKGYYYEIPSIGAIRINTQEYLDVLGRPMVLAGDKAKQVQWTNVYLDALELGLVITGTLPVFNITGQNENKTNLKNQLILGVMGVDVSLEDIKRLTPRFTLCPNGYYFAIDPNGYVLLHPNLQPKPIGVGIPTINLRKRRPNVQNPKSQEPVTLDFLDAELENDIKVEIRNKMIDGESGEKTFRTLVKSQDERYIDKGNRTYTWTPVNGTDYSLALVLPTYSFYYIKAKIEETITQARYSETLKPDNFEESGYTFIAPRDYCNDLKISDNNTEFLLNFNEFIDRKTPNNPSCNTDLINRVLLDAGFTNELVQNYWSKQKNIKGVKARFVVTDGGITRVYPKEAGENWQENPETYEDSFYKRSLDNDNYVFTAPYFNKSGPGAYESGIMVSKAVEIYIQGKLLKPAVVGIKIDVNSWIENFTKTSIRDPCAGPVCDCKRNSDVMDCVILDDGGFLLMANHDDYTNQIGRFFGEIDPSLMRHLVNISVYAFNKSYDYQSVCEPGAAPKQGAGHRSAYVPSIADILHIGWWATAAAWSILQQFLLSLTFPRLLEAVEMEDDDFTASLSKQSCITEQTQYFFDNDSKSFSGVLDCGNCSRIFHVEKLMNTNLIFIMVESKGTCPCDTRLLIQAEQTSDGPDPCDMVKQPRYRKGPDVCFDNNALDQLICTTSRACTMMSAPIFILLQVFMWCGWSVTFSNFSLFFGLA
# UniProt A0A8W4FF87, 1-1142: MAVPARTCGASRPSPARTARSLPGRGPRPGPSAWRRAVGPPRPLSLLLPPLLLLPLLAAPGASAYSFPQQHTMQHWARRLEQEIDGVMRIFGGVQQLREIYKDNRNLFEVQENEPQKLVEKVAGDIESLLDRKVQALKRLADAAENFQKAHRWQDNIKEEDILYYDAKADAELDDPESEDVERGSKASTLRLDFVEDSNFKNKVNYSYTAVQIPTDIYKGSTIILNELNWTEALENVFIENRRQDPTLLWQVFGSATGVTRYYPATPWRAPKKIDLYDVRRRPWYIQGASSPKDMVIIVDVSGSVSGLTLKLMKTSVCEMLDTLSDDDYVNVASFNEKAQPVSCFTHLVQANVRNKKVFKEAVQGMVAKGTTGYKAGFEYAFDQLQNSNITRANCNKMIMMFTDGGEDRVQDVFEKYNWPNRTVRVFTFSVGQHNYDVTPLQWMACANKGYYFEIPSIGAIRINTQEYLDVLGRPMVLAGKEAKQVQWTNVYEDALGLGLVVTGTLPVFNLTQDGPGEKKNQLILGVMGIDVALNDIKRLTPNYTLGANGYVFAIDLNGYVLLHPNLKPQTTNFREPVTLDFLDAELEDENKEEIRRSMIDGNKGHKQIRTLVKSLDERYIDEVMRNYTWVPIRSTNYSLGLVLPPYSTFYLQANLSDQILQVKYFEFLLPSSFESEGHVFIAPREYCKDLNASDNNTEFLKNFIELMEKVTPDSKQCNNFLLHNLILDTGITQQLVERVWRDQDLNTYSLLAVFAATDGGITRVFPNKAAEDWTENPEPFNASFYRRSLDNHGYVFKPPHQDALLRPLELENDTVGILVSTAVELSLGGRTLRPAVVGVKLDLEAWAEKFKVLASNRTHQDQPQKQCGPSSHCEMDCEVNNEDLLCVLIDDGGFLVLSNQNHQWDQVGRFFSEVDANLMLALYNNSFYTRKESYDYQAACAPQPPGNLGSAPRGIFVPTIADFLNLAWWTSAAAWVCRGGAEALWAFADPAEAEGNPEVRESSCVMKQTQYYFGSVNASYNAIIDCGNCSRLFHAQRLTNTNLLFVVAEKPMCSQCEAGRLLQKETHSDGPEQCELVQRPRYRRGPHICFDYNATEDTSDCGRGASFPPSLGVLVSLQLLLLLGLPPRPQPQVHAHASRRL
# Where two headings read alike, the source gives them in different places.
# How the values were obtained:
# [1] = molecular target: alpha-2-delta receptors, membrane from pig cortex (Sus scrofa, UniProt O77773); test: [3H]Gabapentin A2DR binding assay (GABAPAA or GABAP, Biological Method 6)
# Experimental: In one version, the binding assay is set up in a 96-well format using deep-well polypropylene plates. In a total volume of 500 μL, the following additions are made: 250 μL buffer [[…] N-2-hydroxyethylpiperazine-N′-2-ethanesulfonic acid (“HEPES”), pH 7.4], 25 μL [3H]gabapentin (10 nM final concentration), 200 μL thawed tissue membrane preparation from Step (1) (˜40 μg protein), and 25 μL of test compound at 7 test dilutions (for example, 0.001, 0.01, 0.03, 0.1, 0.3, 1.0, and 10 μM concentrations). Non-specific binding for each plate is determined by the addition of 10 μM of pregabalin instead of test compound in a few of the 96 wells. Following incubation for 45 minutes at 21° C., the contents of the wells are filtered under vacuum onto glass filter/B (“GF/B”) filter mats and then washed 4×1 mL with chilled 50 mM tris(hydroxymethyl)aminomethane (“Tris”) HCl, pH 6.9. The mats are placed into plastic pouches, scintillation cocktail is added, the pouches are sealed, and radioactivity for each sample is counted.
# (§1) Specific binding values for each concentration are transformed and then analyzed by a 4-parameter nonlinear regression equation provided by Prism graphics software by Graph Pad to determine IC50 values by conventional means.
# The GABAPAA assay, also known as the GABAP assay, is carried out according to the method of Biological Method 4 except that the source of alpha-2-delta receptors is membrane from pig cortex.
# [2] = molecular target: alpha-2-delta receptor 1 (A2DR1) (Homo sapiens, UniProt P54289); test: [3H]Gabapentin A2DR1 binding assay (filter, Biological Method 4); settings: read-out: A2DR1 IC50, displacement of [3H]-gabapentin
# From the text: (§2) HEK 293 recombinant cells expressing A2DR1 or A2DR2 protein are harvested and washed in phosphate buffered saline (“PBS”). The cells are centrifuged and resuspended in tris(hydroxymethyl)aminomethane-ethylenediaminetetraacetic acid (“Tris-EDTA” or “TE”) buffer containing Roche Complete Protease Inhibitor Cocktail. The cells are homogenized, centrifuged at 3000×g, and the supernatant centrifuged again at 50,000×g. The resulting pellet is resuspended and homogenized in TE. Following determination of A2DR1 or A2DR2 protein concentration, aliquots are stored at −70° C. until the day of testing (membrane preparation may be used for at least 6 months).
# (§3) In one version, the binding assay is set up in a 96-well format using deep-well polypropylene plates. […] Non-specific binding for each plate is determined by the addition of 10 μM of pregabalin instead of test compound in a few of the 96 wells. […] The mats are placed into plastic pouches, scintillation cocktail is added, the pouches are sealed, and radioactivity for each sample is counted.
# as §1
# [3] = molecular target: alpha-2-delta receptor 2 (A2DR2) (Homo sapiens, UniProt Q9NY47); test: [3H]Gabapentin A2DR2 binding assay (filter, Biological Method 4); settings: read-out: A2DR2 IC50, displacement of [3H]-gabapentin
# From the text: as §2, §3, §1
# [4] = test system: MIA Rat (monosodium iodoacetate-induced osteoarthritis, right knee joint); test: Monosodium iodoacetate-induced osteoarthritis in rat model of joint cartilage damage (MIA Rat); settings: 2-week MIA study, Day 14, rat; for % I @ 10 mg/kg/day (%) (± SEM): inhibition of loss of hind limb joint function in MIA at Day 14: 10 mg/kg/day via osmotic pump, tested form: HCl
# From the text: One end result of the induction of osteoarthritis in this model, as determined by histologic analysis, is the development of an osteoarthritic condition within the affected joint, as characterized by the loss of Toluidine blue staining and formation of osteophytes. Associated with the histologic changes is a concentration-dependent degradation of joint cartilage, as evidenced by affects on hind-paw weight distribution of the limb containing the affected joint, the presence of increased amounts of proteoglycan or hydroxyproline in the joint upon biochemical analysis, or histopathological analysis of the osteoarthritic lesions.
# The invention compounds typically are not effective for relieving joint pain when administered in an acute model, such as the instant MIA Rat model, which has a duration of just 14 or 28 days.
# Generally, In the MIA Rat model on Day 0, the hind-paw weight differential between the right arthritic joint and the left healthy joint of male Wistar rats (150 g) are determined with an incapacitance tester, model 2KG (Linton Instrumentation, Norfolk, United Kingdom). […]
# Administration of an invention compound in this model is optionally by oral administration or by intravenous administration via an osmotic pump. After 7 and 14 days for a two week study, or 7, 14, and 28 days for a four week study, the hind-paw weight distribution is again determined. […] Percent inhibition of a change in hind paw joint function is calculated as the percent change in hind-paw weight distribution for treated animals versus control animals. For example, for a two week study, [formula] wherein: ΔWC is the hind-paw weight differential between the healthy left limb and the arthritic limb of the control animal administered vehicle alone, as measured on Day 14; and • ΔWG is the hind-paw weight differential between the healthy left limb and the arthritic limb of the animal administered an invention compound as measured on Day 14. […]
# [5] = molecular target: pig alpha-2-delta receptor 1 (A2DR1) (Sus scrofa, UniProt A0A287BIN3); test: [3H]Gabapentin scintillant proximity A2DR1 binding assay (A2DR1 SPA, Biological Method 5)
# Experimental: (§4) Recombinant HEK 293 cells expressing pig A2DR1 and A2DR2 subunits were grown under normal cell culture conditions (RPMI-1640 media with 10% FBS, 200 μg G418, and 1% penicillin/streptomycin 1t 37° C. with 5% CO2) until reaching confluency in T-75 flasks, at which time they were harvested. The harvested cells were suspended in ice-cold 5 mM Tris/5 mM ethylenediaminetetraacetic acid (“EDTA”) buffer, pH 7.4 (“TE buffer”) containing phenylmethylsulfonyl fluoride (“PMSF”) (0.1 mM) and Roche Complete Protease Inhibitor Cocktail, and allowed to sit on ice for 30 minutes. The cells were broken by sonication using 20 bursts, 40-50 cycles, and then centrifuged at 3000×g for 10 minutes. The resulting supernatant was transferred to a new tube and centrifuged at 50,000×g for 30 minutes. The resulting pellet was resuspended in 10 mM HEPES buffer, pH 7.4, homogenized, and stored at—80° C. The A2DR1 or A2DR2 membrane protein concentration was determined by the Pierce BCA method using bovine serum albumin (“BSA”) as the standard.
# (§5) The [^3H]gabapentin SPA binding assay was performed in Costar 3632 96-well, clear bottom assay plates using Wheatgerm agglutinin beads (Amersham Pharmacia Biotech). Pig A2DR1 or A2DR2 membranes (10-20 μg protein per well) prepared above in Step (1) and SPA beads (0.5 mg per well) were mixed with 30 nM [^3H]gabapentin (52 Ci/mmol; Amersham Pharmacia Biotech) in 10 mM HEPES/10 mM MgSO4 assay buffer, pH 7.4 using KOH. The final well volume was 200 μL and non-specific binding was determined in the presence of 10 μM unlabeled pregabalin. The final mixture containing A2DR1 or A2DR2 membrane protein incubated with SPA beads, test compounds, and [^3H]gabapentin was incubated at room temperature for 15-24 hours, and the plates were then counted on a Wallace Trilux 1450 Microbeta scintillation counter. Step (3): Determination of IC50 values
# (§6) Curve fitting and IC50 values were calculated using a four-parameter, non-linear regression equation from GraphPad Prism 3.0 software, while Ki values were determined using the equation of Chang and Prussoff.
# [6] = molecular target: pig alpha-2-delta receptor 2 (A2DR2) (UniProt A0A8W4FF87); test: [3H]Gabapentin scintillant proximity A2DR2 binding assay (A2DR2 SPA, Biological Method 5)
# Experimental: as §4, §5, §6
# [7] = read-out: GABAPAA IC50, displacement of [3H]-gabapentin, tested form: HCl
# [8] = read-out: A2DR1 SPA IC50, displacement of [3H]-gabapentin, tested form: HCl
# [9] = read-out: A2DR2 SPA IC50, displacement of [3H]-gabapentin, tested form: HCl
# [10] = read-out: A2DR1 SPA IC50, displacement of [3H]-gabapentin, tested form: hydrochloride
# [11] = read-out: A2DR2 SPA IC50, displacement of [3H]-gabapentin, tested form: hydrochloride
smiles,measurement,setting,value
CN1C(C(=O)NS(C)(=O)=O)CC2CCCCC21 (stereo not drawn),IC50,"[1]; read-out: GABAPAA IC50, displacement of [3H]-gabapentin",≥ 10 µM
same,IC50,[2],≥ 10 µM
same,IC50,[3],≥ 10 µM
CCC1CCC2NC(C(=O)O)CC2C1 (stereo not drawn),% I @ 10 mg/kg/day (%) (± SEM): inhibition of loss of hind limb joint function in MIA at Day 14,[4],65 ± 11%
same,IC50,[1]; [7],≥ 10 µM
same,IC50,[2]; tested form: HCl,≥ 10 µM
same,IC50,[5]; [8],1.1 µM
same,IC50,[6]; [9],5.8 µM
same,IC50,[3]; tested form: HCl,≥ 10 µM
CC1CCCC2CC(C(=O)O)NC12 (stereo not drawn),% I @ 10 mg/kg/day (%) (± SEM): inhibition of loss of hind limb joint function in MIA at Day 14,[4],26 ± 13%
same,IC50,[1]; [7],≥ 10 µM
same,IC50,[5]; [8],≥ 10 µM
same,IC50,[6]; [9],≥ 10 µM
CN1[C@@H](C(=O)O)C[C@H]2CCCC[C@H]21,% I @ 30 mg/kg BID (%) (± SEM): inhibition of loss of hind limb joint function in MIA at Day 14,"[4]; 30 mg/kg BID oral, tested form: hydrochloride",69 ± 15%
same,IC50,[5]; [10],≥ 10 µM
same,IC50,[6]; [11],≥ 10 µM
CN1[C@H]2CCCC[C@H]2C[C@@]1(C)C(=O)O,IC50,[5]; [10],≥ 10 µM
same,IC50,[6]; [11],≥ 10 µM
